# Assay results: article PMC9589981, “High-Resolution Epitope Mapping and Affinity Binding Analysis Comparing a New Anti-Human LAG3 Rabbit Antibody Clone to the Commonly Used Mouse 17B4 Clone” (Antibodies, 2022)
# Key:
# [1] = tested on: rabbit SP464 antibody (binding to LAG3 from HH cell lysate); test: ACE (automated capillary electrophoresis) peptide inhibition assay, SP464; conditions: for inhibition of SP464 binding by immunogen fragment (ACE): result in words, peptide at 5000 nM and 500 nM, HH cell lysate
# Procedure: (§1) For each assay run, HH cell lysate was mixed with 0.1× WES sample buffer reagent, and reconstituted WES 5× Fluorescent Mix reagent followed by denaturation at 95 °C for 3 min and then held on ice followed until use. Denatured sample was added to each of the designated wells of the separation module sampling plate. Dilutions of the stock rabbit SP464 and mouse 17B4 monoclonal antibodies were made to the desired concentrations using the WES detection module Antibody Dilution Buffer 2 reagent. Diluted antibody solutions were added to the designated wells of the separation module sampling plate. The remaining WES assay reagents were finally added to the plate and then processed in the WES instrument using the default running and detection parameters.
# HH cell lysate samples were prepared and used as above for antibody titration assays. Rabbit SP464 and mouse 17B4 antibodies were diluted to 4 µg/mL in the WES detection module Antibody Dilution Buffer 2 reagent. The antibody solutions were then diluted 1:1 (vol/vol) with varying concentrations of peptide, or diluent as a no peptide control, for 1 h at RT, and 10 µL of each antibody/peptide solution was added to the designated wells of the separation module sampling plate. Samples were run in duplicates or triplicates. Plates were then processed in the WES instrument using default running and detection parameters. The IC50 value for each alanine-substituted peptide was determined using a non-linear fit of the log concentration of peptide inhibitor versus the combined peak areas of the soluble and full-length endogenous LAG3 bands using the four-parameter model of Prism GraphPad Prism with the bottom value constrained to zero.
# [2] = tested on: mouse 17B4 antibody (binding to LAG3 from HH cell lysate); test: ACE (automated capillary electrophoresis) peptide inhibition assay, 17B4; conditions: 17B4, HH cell lysate
# Procedure: as §1
# HH cell lysate samples were prepared and used as above for antibody titration assays. Rabbit SP464 and mouse 17B4 antibodies were diluted to 4 µg/mL in the WES detection module Antibody Dilution Buffer 2 reagent. […] The IC50 value for each alanine-substituted peptide was determined using a non-linear fit of the log concentration of peptide inhibitor versus the combined peak areas of the soluble and full-length endogenous LAG3 bands using the four-parameter model of Prism GraphPad Prism with the bottom value constrained to zero.
Sequence,"peptide concentrations at which antibody binding was eliminated ([1]; ACE, SP464, HH cell lysate)",peptide concentrations at which antibody binding was eliminated [2],inhibition of SP464 binding by immunogen fragment (ACE) [1],inhibition of SP464 binding by immunogen fragment (ACE) ([1]; listed as C-terminal sub-domain fragment)
"GPPAAAPGHPLAPGPHPAAPSSWGPRPRRY [full-length immunogen, 30-mer LAG3 immunogen peptide used to create both 17B4 and SP464, reference compound]",greater than 50 nM,greater than 50 nM,,
PGHPLAPGP [peptide fragment consisting of the nine C-terminal amino acids of the N-terminal 15-mer],,,inhibited binding,complete inhibition
